Reference: patent US20240376149A1, “Novel Modulators of GABABR1a” (VIB VZW, priority 2021, published 2024)
pIC50: −log10 of the molar value.

Sequences of proteins named here, by UniProt entry; tags and fusion partners are left off. Residues count along the entry.
UniProt Q9UBS5, 26-96: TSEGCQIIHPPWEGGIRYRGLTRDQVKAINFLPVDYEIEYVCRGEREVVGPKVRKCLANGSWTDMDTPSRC

Columns and labels:
[1] = molecular target: T1, GABABR1a-SD1 (SD1-FITC-9mer complex) (Homo sapiens, UniProt Q9UBS5); test: Fluorescence polarization (FP) competition assay with FITC-9mer; type: binding; conditions: for inhibition at 50 µM: peptide at 50 μM, inhibition of FITC-9mer binding to SD1
T1 construct: The synthetic gene encoding for residues 26-96 of the Sushi1 protein was cloned into a pFloat-SUMO vector; His-SUMO (with 3C protease site) (N, cleaved yes); made in house; host or cells: E. coli BL21(DE3)
Experimental: Intrigued by the surprising results of the 5-mer, it was decided to set up a medium- to high-throughput screen to optimize the 5-mer sequence. Several assays were tested to find a reproducible, robust and cost-effective assay that is also suitable for high-throughput screening. A fluorescence polarization (FP) assay was selected. FP measurements are well-known for receptor binding assays. The assay is based on the rotational movement of fluorescently labelled molecules in solution. […] The FP assay was optimized using the FITC labelled sAPP 9-mer (FIG. 1).
To screen for GABABR1a binders using unlabelled test compounds, the assay was turned into a competition assay using FITC-9mer. […] To validate this inhibitor assay, the IC50 values were determined of the 17-mer, 9-mer, 5-mer as well as those from 3 negative controls: 10-mer, scrambled 17-mer and a scrambled 9-mer (FIG. 2).
To determine if the peptides of this application were able to disrupt the SD1-9-mer complex, each peptide (in single point or dose-response curve) tested was incubate with SD1 protein for 1 h at RT. After this initially incubation, FITC-9mer was added to the previous mix and incubated during 2 h at RT. The signal intensity was measure in an appropriate plate reader using the following settings: Number of flashes per well: 200; Excitation: F482-16; Dichroic filter: FLP 504; Emission A F530-40; Gain A: 738, Gain B: 736. The assay was conducted in a 384-well plate.

[2] = system: acute mouse hippocampal slices, CA3-CA1 Schaffer collateral (SC) synapses; test: Ex vivo fEPSP short-term facilitation in acute hippocampal slices (multi-electrode array); type: cell-based; conditions: for Ex vivo assay 1 μM (short-term facilitation): peptide 1 μM, vs scrambled control peptide, burst of 5 stimuli at 20 Hz; for Ex vivo assay 10 μM (short-term facilitation) / Increase in short-term facilitation after preincubation with GABABR antagonist CGP-54626: peptide 10 μM; for Ex vivo assay 10 μM (short-term facilitation): vs scrambled negative control at 10 μM; for Increase in short-term facilitation after preincubation with GABABR antagonist CGP-54626: slices preincubated with CGP-54626
Experimental: The effect of a selection of GABABR1a-SD1 binders on synaptic transmission was tested in an ex vivo experiment using acute mouse hippocampal slices comprising an intact circuit of CA3-CA1 Schaffer collateral (SC) synapses. In short, a burst of 5 stimuli at 20 Hz was applied to Schaffer collaterals to induce short-term facilitation, which inversely correlates with the probability of neurotransmitter release.
Recordings were done in C57BL/6J mice (2 months old). For tissue preparation, mice were anesthetized with isoflurane and rapidly decapitated to prepare acute 300 μm-thick parasagittal brain slices on a Leica VT1200 vibratome. Slicing was performed in cold sucrose based cutting solution (ACSF) that consisted of (in mM): 87 NaCl, 2.5 KCl, 1.25 NaH2PO4, 10 glucose, 25 NaHCO3, 0.5 CaCl2, 7 MgCl2, 75 sucrose, 1 kynurenic acid, 5 ascorbic acid, 3 pyruvic acid (pH 7.4 with 5% CO2/95% O2). Slices were allowed to recover at 34° C. for 35 min, and subsequently maintained at room temperature for at least 30 min before use. Before recordings, slices were preincubated in artificial cerebrospinal fluid (ACSF, 119 mM NaCl, 2.5 mM KCl, 1 mM NaH2PO4, 11 mM glucose, 26 mM NaHCO3, 4 mM MgCl2 and 4 mM CaCl2, pH 7.4) containing peptide of interest or scrambled/control peptide (1 or 10 uM). Preincubation was performed in the multielectrode array recording chamber (60MEA200/30iR-Ti-gr, Multichannel Systems) for 60 min at 32° C., using custom-made local carbogenation rings (5% CO2/95% 02). Field excitatory post-synaptic potentials (fEPSPs) were recorded from Schaffer collateral-CA1 synapses by stimulating and recording from the appropriate (visually identified) electrodes (MEA-2100, Multichannel Systems). Input-output curves were recorded for each slice by applying single-stimuli ranging from 500 to 2750 mV with 250 mV increments. Stimulus strength that corresponds to 35% of maximal response in the input-output curve was used for following recordings. Train stimulations of 10, 20 and 50 Hz (5 stimuli per train) were recorded with 10 minutes intervals. Recordings were processed and analysed using Multi Channel Experimenter software (Multi Channel Systems).

SMILES	inhibition at 50 µM [1] [%]	also measured
CC[C@H](C)[C@H](NC(=O)[C@@H](N)CC(=O)O)C(=O)N[C@@H](Cc1c[nH]c2ccccc12)C(=O)N[C@@H](Cc1c[nH]c2ccccc12)C(=O)NCC(=O)O [VIB_P29, DIWWG]	75	Ex vivo assay 1 μM (short-term facilitation) [2]: Active; Ex vivo assay 1 μM (short-term facilitation) ([2]; listed as P29): statistically significantly increase in facilitation
CC(C)[C@H](NC(=O)[C@@H](N)CC(=O)O)C(=O)N[C@@H](Cc1c[nH]c2ccccc12)C(=O)N[C@@H](Cc1c[nH]c2ccccc12)C(=O)NCC(=O)O [VIB_P33, DVWWG]	66	–
CC[C@H](C)[C@H](NC(=O)[C@@H](N)CC(=O)O)C(=O)N[C@@H](Cc1c[nH]c2ccccc12)C(=O)N[C@@H](Cc1c[nH]c2ccccc12)C(=O)N[C@@H](CO)C(=O)O [VIB_P34, DIWWS]	81.9	Ex vivo assay 1 μM (short-term facilitation) [2]: Active; Ex vivo assay 1 μM (short-term facilitation) ([2]; listed as P34): statistically significantly increase in facilitation; Ex vivo assay 10 μM (short-term facilitation) [2]: Active; Ex vivo assay 10 μM (short-term facilitation) ([2]; listed as P34): statistically significant increase in short-term facilitation; Increase in short-term facilitation after preincubation with GABABR antagonist CGP-54626 [2]: could not be detected anymore
CC[C@H](C)[C@H](NC(=O)[C@@H](N)CC(=O)O)C(=O)N[C@@H](Cc1ccccc1)C(=O)N[C@@H](Cc1c[nH]c2ccccc12)C(=O)N[C@@H](CO)C(=O)O [VIB_P35, DIFWS]	55.9	–
CC[C@H](C)[C@H](NC(=O)[C@@H](N)CC(=O)O)C(=O)N[C@@H](Cc1c[nH]cn1)C(=O)N[C@@H](Cc1c[nH]c2ccccc12)C(=O)N[C@@H](CO)C(=O)O [VIB_P37, DIHWS]	20	pIC50 [1]: 4.45
CC(C)[C@H](NC(=O)[C@@H](N)CC(=O)O)C(=O)N[C@@H](Cc1c[nH]c2ccccc12)C(=O)N[C@@H](Cc1c[nH]c2ccccc12)C(=O)N[C@@H](CO)C(=O)O [VIB_P39, DVWWS]	85.5	pIC50 [1]: 4.86
CC(C)[C@H](NC(=O)[C@@H](N)CO)C(=O)N[C@@H](Cc1ccc(O)cc1)C(=O)N[C@@H](Cc1c[nH]c2ccccc12)C(=O)N[C@@H](CO)C(=O)O [VIB_P41, SVYWS]	5.28	–
CC[C@H](C)[C@H](NC(=O)[C@@H](N)CC(=O)O)C(=O)N[C@@H](Cc1ccc(O)cc1)C(=O)N[C@@H](Cc1c[nH]c2ccccc12)C(=O)NCC(=O)O [VIB_P42, DIYWG]	47.9	–
CC[C@H](C)[C@H](NC(=O)[C@@H](N)CC(=O)O)C(=O)N[C@@H](Cc1ccc(O)cc1)C(=O)N[C@@H](Cc1c[nH]c2ccccc12)C(=O)N[C@@H](CO)C(=O)O [VIB_P43, DIYWS]	48.6	Ex vivo assay 10 μM (short-term facilitation) [2]: Active; Ex vivo assay 10 μM (short-term facilitation) ([2]; listed as P43): statistically significant increase in short-term facilitation; Increase in short-term facilitation after preincubation with GABABR antagonist CGP-54626 [2]: could not be detected anymore
CC[C@H](C)[C@H](NC(=O)CN)C(=O)N[C@@H](Cc1ccc(O)cc1)C(=O)N[C@@H](Cc1c[nH]c2ccccc12)C(=O)N[C@@H](CO)C(=O)O [VIB_P47, GIYWS]	53.4	Ex vivo assay 10 μM (short-term facilitation) [2]: Active; Ex vivo assay 10 μM (short-term facilitation) ([2]; listed as P47): statistically significant increase in short-term facilitation
CC(C)[C@H](NC(=O)[C@@H](N)CC(N)=O)C(=O)N[C@@H](Cc1c[nH]c2ccccc12)C(=O)N[C@@H](Cc1c[nH]c2ccccc12)C(=O)N[C@@H](CO)C(=O)O [VIB_P48, NVWWS]	33.5	–
CC[C@H](C)[C@H](NC(=O)[C@@H]1CCCN1)C(=O)N[C@@H](Cc1ccc(O)cc1)C(=O)N[C@@H](Cc1c[nH]c2ccccc12)C(=O)N[C@@H](CO)C(=O)O [VIB_P49, PIYWS]	25	–
CC(C)[C@H](NC(=O)[C@@H](N)CC(=O)O)C(=O)N[C@@H](Cc1ccc(O)cc1)C(=O)N[C@@H](Cc1c[nH]c2ccccc12)C(=O)NCC(=O)O [VIB_P53, DVYWG]	33.5	–
CC(C)[C@H](NC(=O)[C@@H](N)CC(N)=O)C(=O)N[C@@H](Cc1c[nH]c2ccccc12)C(=O)N[C@@H](Cc1c[nH]c2ccccc12)C(=O)NCC(=O)O [VIB_P56, NVWWG]	17.9	–
NC(=O)C[C@H](N)C(=O)N[C@@H](Cc1ccccc1)C(=O)N[C@@H](Cc1ccc(O)cc1)C(=O)N[C@@H](Cc1c[nH]c2ccccc12)C(=O)N[C@@H](CO)C(=O)O [VIB_P58, NFYWS]	-7	–
CC(C)[C@H](NC(=O)CN)C(=O)N[C@@H](Cc1ccc(O)cc1)C(=O)N[C@@H](Cc1c[nH]c2ccccc12)C(=O)N[C@@H](CO)C(=O)O [VIB_P60, GVYWS]	47.5	–
CC[C@H](C)[C@H](NC(=O)[C@@H](N)CC(N)=O)C(=O)N[C@@H](Cc1ccc(O)cc1)C(=O)N[C@@H](Cc1c[nH]c2ccccc12)C(=O)N[C@@H](CO)C(=O)O [VIB_P63, NIYWS]	19.4	–
CC[C@H](C)[C@H](NC(=O)[C@@H](N)CC(N)=O)C(=O)N[C@@H](Cc1c[nH]c2ccccc12)C(=O)N[C@@H](Cc1c[nH]c2ccccc12)C(=O)NCC(=O)O [VIB_P65, NIWWG]	41.4	–
CC[C@H](C)[C@H](NC(=O)[C@@H](N)CC(N)=O)C(=O)N[C@@H](Cc1c[nH]c2ccccc12)C(=O)N[C@@H](Cc1c[nH]c2ccccc12)C(=O)N[C@@H](CO)C(=O)O [VIB_P66, NIWWS]	66.4	–
CC[C@H](C)[C@H](NC(=O)[C@@H](N)CC(N)=O)C(=O)N[C@@H](Cc1ccc(O)cc1)C(=O)N[C@@H](Cc1c[nH]c2ccccc12)C(=O)NCC(=O)O [VIB_P68, NIYWG]	15.9	–
